Patent publication US8202893B2, “Cannabinergic lipid ligands” (University of Connecticut, priority 2004, dated 2012)

By UniProt entry, the sequences of proteins in these tests, tags left out.
UniProt P97612, whole entry: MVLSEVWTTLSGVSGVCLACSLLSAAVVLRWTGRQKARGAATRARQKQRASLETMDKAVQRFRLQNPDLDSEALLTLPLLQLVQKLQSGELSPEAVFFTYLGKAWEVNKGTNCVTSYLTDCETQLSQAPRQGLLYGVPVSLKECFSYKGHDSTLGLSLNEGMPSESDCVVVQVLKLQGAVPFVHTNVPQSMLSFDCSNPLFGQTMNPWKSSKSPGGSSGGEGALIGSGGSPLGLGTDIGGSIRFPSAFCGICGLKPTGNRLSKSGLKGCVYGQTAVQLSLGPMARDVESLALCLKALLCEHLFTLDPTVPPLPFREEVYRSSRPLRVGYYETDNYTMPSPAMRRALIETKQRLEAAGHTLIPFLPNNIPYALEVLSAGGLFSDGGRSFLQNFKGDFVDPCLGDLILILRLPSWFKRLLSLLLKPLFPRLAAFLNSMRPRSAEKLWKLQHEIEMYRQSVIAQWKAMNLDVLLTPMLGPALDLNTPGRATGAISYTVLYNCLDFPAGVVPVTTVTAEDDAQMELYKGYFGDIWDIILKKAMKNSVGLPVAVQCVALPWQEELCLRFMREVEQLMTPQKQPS
UniProt P20272, whole entry: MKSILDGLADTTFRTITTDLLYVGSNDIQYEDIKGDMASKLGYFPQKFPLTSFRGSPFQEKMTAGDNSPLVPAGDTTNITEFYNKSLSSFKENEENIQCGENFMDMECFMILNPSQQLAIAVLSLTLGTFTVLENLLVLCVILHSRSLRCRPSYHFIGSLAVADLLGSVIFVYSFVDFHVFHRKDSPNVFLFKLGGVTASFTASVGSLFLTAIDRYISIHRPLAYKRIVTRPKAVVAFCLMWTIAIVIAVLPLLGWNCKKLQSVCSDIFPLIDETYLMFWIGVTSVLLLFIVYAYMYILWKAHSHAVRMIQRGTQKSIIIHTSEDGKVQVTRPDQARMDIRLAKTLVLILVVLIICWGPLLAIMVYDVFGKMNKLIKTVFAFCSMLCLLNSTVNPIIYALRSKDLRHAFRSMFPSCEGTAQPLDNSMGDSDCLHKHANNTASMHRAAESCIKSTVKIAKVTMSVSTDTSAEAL
UniProt Q8R431, whole entry: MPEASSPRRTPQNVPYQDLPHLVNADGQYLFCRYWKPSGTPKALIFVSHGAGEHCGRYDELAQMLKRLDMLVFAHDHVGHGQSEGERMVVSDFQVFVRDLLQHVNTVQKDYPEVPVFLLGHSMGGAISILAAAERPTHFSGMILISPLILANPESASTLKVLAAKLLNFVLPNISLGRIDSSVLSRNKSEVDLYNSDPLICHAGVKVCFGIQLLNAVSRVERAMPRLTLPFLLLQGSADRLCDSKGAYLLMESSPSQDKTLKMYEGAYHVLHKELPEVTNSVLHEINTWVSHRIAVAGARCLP

How the values were obtained:
anandamide transporter = assay: [3H]Anandamide transporter competition assay; conditions: read-out: IC50 AT inhibition; human CCF-STG1 astrocytoma cells, 10 nM [3H]anandamide
Experimental: Human CCF-STG1 astrocytoma cells (American Type Culture collection) were grown in RPMI1640 culture medium containing 2 mM L-glutamine, 4.5 g/L glucose, 10 mM HEPES, and 1.0 mM sodium pyruvate, 10% FBS, cultures at 37° C. with 5% CO2. For standard competition assays, confluent cells grown in 24-well plates were rinsed and preincubated for 10 min at 37° C. in assay buffer (Hank's Balanced Salt Solution containing 0.1% DMSO, 10 mM HEPES) plus test compounds (at their final concentrations of 0.01-100 μM). After having discarded the preincubation media, the cells were incubated for 4 min in 0.2 ml assay buffer containing 10 nM [^3H] anandamide (137.6 Ci/mmol, New England Nuclear) plus test compounds. Reactions were stopped by removing the incubation media and rinsing the cells three times with 0.5 ml of ice-cold HBSS buffer containing 0.1% fatty acid-free Bovine Serum Albumin (sigma). Radioactive material in Triton X-100 cell extracts was measured by liquid scintillation counting. A minimum of three independent experiments conducted in six replicates was used to define the concentration needed to produce half-maximal inhibition (IC50) for each compound. IC50 values were obtained by nonlinear regression fitting of the data, using the PRIZM software package. Data are expressed as mean±SEM.

[1] = target: FAAH (fatty acid amide hydrolase) (Rattus norvegicus, UniProt P97612); assay: FAAH screening: inhibition of anandamide metabolism to arachidonic acid; conditions: 25 nmoles compound with 25 nmoles AEA, 75 μg enzyme, 250 μL, 15 min
Experimental: The FAAH (fatty acid amide hydrolase) enzyme preparation was obtained according to the procedure of Lang and Makriyannis et al High Performance Liquid Chromatographic Determination of Anandamide Amidase Activity in Rat Brain Microsomes, Analytical Biochemistry (238): 40-45, 1996.
(§1) All compound solutions were made to a concentration of 10 mM in DMSO. Three tests were performed on each compound: hydrolysis, to determine the stability of the compound in assay conditions without the enzyme present; metabolism, to determine the stability of the compound with the enzyme present; and inhibition of anandamide (native substrate) metabolism to arachidonic acid.
The inhibition of AEA metabolism was measured by mixing 25 nmoles of the compound with 25 nmoles AEA, and 75 μg enzyme preparation in TME buffer with 0.1% BSA (final volume of 250 μL). Again the reaction mixture was treated in the same manner as described above and the concentrations of AEA and AA were calculated using external standards. Percent inhibition was calculated using the following equation: % Inhib.=(AA15-AA0)i/(AA15-AA0)s where (AA15-AA0)c is the amount of arachidonic acid formed over 15 minutes from AEA with the inhibitor present and (AA15-AA0)s is the amount of arachidonic acid formed over 15 minutes from AEA when the inhibitor is not present. […]

CB1 cannabinoid receptor = CB1 cannabinoid receptor (Rattus norvegicus, UniProt P20272); assay: CB1 receptor binding, [3H]CP-55,940 displacement; conditions: read-out: Ki CB1 (nM) (o/w PMSFQ); without PMSF (first value of cell); rat forebrain membranes
Experimental: Some inventive analogs were tested for CB2 receptor binding affinity and for CB1 receptor affinity (to determine selectivity). As used herein, “binding affinity” is represented by the Ki value which is the inhibition constant correlated with the concentration of an analog required to occupy the 50% of the total number (Bmax) of the receptors. The lower the Ki value, the higher the binding affinity. […] For the CB1 receptor binding studies, membranes were prepared from rat forebrain membranes according to the procedure of P. R. Dodd et al, A Rapid Method for Preparing Synaptosomes: Comparison with Alternative Procedures, Brain Res., 107-118 (1981). The binding of the novel analogues to the CB1 cannabinoid receptor was assessed as described in W. A. Devane et al, Determination and Characterization of a Cannabinoid Receptor in a Rat Brain, Mol. Pharmacol., 34, 605-613 (1988) and A. Charalambous et al, 5′-azido Δ^8-THC: A Novel Photoaffinity Label for the Cannabinoid Receptor, J. Med. Chem., 35, 3076-3079 (1992) with the following changes. […]
The treated membranes were subsequently used in the binding assay described below. […] Radioactivity was detected using MicroScint 20 scintillation cocktail added directly to the dried filterplates, and the filterplates were counted using a Packard Instruments Top-Count. Nonspecific binding was assessed using 100 nM CP-55,940. […]

Mag-lipase = Mag-lipase (Rattus norvegicus, UniProt Q8R431); assay: Inhibition of MAG-lipase: 2-AG metabolism to arachidonic acid; conditions: 30 nmoles compound with 30 nmoles 2-AG, 30 μg enzyme, 300 μL, 20 min
Experimental: as §1, with “2-Arachidonoyl glycerol” for “anandamide”
The inhibition of 2-AG metabolism was measured by mixing 30 nmoles of the compound with 30 nmoles 2-AG, and 30 μg enzyme preparation in TME buffer (final volume of 300 μL). Again the reaction mixture was treated in the same manner as described above and the concentrations of 2-AG and AA were calculated using external standards. Percent inhibition was calculated using the following equation: % Inhib.=(AA20-AA0)i/(AA20-AA0)s where (AA20-AA0)i is the amount of arachidonic acid formed over 20 minutes from 2-AG with the inhibitor present and (AA20-AA0)s is the amount of arachidonic acid formed over 20 minutes from 2-AG when the inhibitor is not present. […] The reaction mixtures were treated as described above and the amount of AA formed was calculated. The software package GraphPad Prism was utilized to calculate IC50 and Ki. HPLC Conditions:
Chromatographic separation was achieved using an Ultrasphere ODS Pre-column (4.6×45 mm) from Beckman. […]

## O=C(CCC/C=C\C/C=C\C/C=C\C/C=C\CCCCCN=C=S)NC1CC1
Anandamide transporter
  IC50: 1900 nM
[1]
  FAAH % Inhibition: 43%
CB1 cannabinoid receptor
  Ki: 83.7 nM
Mag-lipase
  Mag-Lipase % Inhibition: 5.2%
